We go through 2 molecules from patent publication US4977153A.

By UniProt entry, the sequences of proteins in these tests, tags left out. Residues count along the entry.
UniProt H0W3H1, 1-470: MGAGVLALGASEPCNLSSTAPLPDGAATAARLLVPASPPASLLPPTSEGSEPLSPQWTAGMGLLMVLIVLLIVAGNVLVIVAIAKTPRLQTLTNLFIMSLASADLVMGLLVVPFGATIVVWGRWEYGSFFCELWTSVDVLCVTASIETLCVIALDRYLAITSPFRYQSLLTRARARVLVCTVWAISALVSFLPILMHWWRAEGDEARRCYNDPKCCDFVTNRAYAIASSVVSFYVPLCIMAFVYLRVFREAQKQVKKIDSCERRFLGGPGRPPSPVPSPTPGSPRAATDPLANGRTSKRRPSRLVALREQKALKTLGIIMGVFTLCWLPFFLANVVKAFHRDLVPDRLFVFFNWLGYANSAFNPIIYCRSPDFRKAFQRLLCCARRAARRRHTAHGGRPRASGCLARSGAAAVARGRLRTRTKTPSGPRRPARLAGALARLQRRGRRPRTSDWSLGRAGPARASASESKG
UniProt Q8K4Z4, whole entry: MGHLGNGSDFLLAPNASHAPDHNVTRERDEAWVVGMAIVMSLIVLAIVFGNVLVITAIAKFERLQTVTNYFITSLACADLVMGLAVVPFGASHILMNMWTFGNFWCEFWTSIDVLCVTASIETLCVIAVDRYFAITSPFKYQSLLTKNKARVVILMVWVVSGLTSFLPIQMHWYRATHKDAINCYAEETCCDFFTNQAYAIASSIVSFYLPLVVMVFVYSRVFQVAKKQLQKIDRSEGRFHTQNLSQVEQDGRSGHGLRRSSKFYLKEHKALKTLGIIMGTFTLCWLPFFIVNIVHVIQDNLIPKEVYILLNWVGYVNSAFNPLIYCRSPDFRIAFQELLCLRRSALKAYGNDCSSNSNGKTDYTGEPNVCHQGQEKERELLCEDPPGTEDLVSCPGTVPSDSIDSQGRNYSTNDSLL
UniProt P18090, whole entry: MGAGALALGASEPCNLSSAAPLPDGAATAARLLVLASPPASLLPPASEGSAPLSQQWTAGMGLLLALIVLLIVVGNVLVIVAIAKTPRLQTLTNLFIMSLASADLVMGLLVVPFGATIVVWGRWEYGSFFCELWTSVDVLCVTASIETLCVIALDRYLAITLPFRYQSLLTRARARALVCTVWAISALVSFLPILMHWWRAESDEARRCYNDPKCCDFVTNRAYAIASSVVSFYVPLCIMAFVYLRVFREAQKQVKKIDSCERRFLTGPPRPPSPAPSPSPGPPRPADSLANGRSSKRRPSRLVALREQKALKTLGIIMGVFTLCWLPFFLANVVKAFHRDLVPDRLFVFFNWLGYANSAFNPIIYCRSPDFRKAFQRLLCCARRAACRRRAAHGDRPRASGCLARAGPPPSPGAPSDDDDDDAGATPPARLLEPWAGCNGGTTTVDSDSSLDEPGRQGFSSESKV

For assay [1], the target named is beta adrenoceptor (guinea pig atrium) (Cavia porcellus, UniProt H0W3H1).
Assay [2] concerns the target beta adrenoceptor (guinea pig trachea) (Cavia porcellus, UniProt Q8K4Z4).
Assay [3] deals with beta adrenoceptor (guinea pig trachea). Conditions: selectivity index, guinea pig trachea vs atrium.
Assay [4] has as its system resting heart rate in the pithed rat. Conditions: maximum effect of cumulative doses of drug up to 3 mg/kg.
The target of assay [5] is beta adrenoceptor (heart) (Rattus norvegicus, UniProt P18090). Nature of the assay: inhibition of isoproterenol-induced tachycardia in the pithed rat. The format is in vivo.

`CCCOCCOc1ccc(OCC(O)CNCCNC(=O)Nc2ccc3cn[nH]c3c2)c(C#N)c1` (stereo not shown) came in with a Kb in assay [1] of 2.2 nM. Moreover, in assay [2], the IC50 was greater than 100000 nM. This molecule showed a selectivity (cardiac atrial vs tracheal) in assay [3] of 45000.

On to `CCCOCCOc1ccc(OCC(O)CNCCNC(=O)Nc2ccc3[nH]ncc3c2)c(C#N)c1` (stereo not shown), for which, in assay [4], the “Maximum Change in Resting Heart Rate in the Pithed Rat” value is “+119”. For the same molecule, the “Pithed Rat Effective Dose (ID50)” value in assay [5] stood at 2 µg/kg. The same molecule registered a Kb in assay [1] of 1.2 nM. The same molecule had an IC50 in assay [2] of 40000 nM.
